Measured values from US10272144B2, “Compositions for and methods of treating and preventing targeting tumor associated carbohydrate antigens” (Board of Trustees of the University of Arkansas, priority 2013, dated 2019).

Legend:
[1] = acidic pH
[2] = test system: cancer cells (HCC1954 and MDA-MB-231); assay: Immunized plasma toxicity on cancer cells (both cell lines); format: cell-based, human; settings: 6 subjects
Source text: Medium in control wells contained 10% FBS.

[3] = test system: MDA-MB-231 cells; settings: 10% plasma, 24 hours; 6 subjects; P=0.044
[4] = test system: HCC1954 cells; settings: 10% plasma, 24 hours; 6 subjects; P=0.047

**Q.** What does the source list for “H-Trp-Arg-Tyr-Thr-Ala-Pro-Val-His-Leu-Gly-Asp-Gly-dAla-Lys-CHAla-Val-Ala-Ala-Trp-Thr-Leu-Lys-Ala-Ala-dAla-NH2 [P10s-PADRE]”?
**A.** aqueous solubility [1]: good; toxicities (500 μg dose): no toxicities; side effects (Example 5 patient, 300 mcg SC): Other than local reactions with indurations at the site of injections, the vaccine did not have any side effects; dose-limiting toxicities (DLTs) (first four subjects, SC with MONTANIDE ISA 51 VG): No dose-limiting toxicities; dose-limiting toxicity (whole study, 300 and 500 μg/injection): No dose-limiting toxicity; safety and tolerability (whole study, six subjects): safe and tolerable; cytotoxicity of post-immune plasma compared to pre-immune plasma [2]: higher in the post-immune plasma from 5 of the 6 subjects; post-immune increase in cytotoxicity, average (standard deviation) [3]: 30% (28%); post-immune increase in cytotoxicity, average (standard deviation) [4]: 26% (24%)
